Here are results for 2 compounds from PubChem BioAssay AID504937 (National Center for Advancing Translational Sciences (NCATS), 2011).

Amino acid sequences for entries named in this document (tags omitted). Residues count along the entry.
UniProt P17405, 47-631 limits assumed: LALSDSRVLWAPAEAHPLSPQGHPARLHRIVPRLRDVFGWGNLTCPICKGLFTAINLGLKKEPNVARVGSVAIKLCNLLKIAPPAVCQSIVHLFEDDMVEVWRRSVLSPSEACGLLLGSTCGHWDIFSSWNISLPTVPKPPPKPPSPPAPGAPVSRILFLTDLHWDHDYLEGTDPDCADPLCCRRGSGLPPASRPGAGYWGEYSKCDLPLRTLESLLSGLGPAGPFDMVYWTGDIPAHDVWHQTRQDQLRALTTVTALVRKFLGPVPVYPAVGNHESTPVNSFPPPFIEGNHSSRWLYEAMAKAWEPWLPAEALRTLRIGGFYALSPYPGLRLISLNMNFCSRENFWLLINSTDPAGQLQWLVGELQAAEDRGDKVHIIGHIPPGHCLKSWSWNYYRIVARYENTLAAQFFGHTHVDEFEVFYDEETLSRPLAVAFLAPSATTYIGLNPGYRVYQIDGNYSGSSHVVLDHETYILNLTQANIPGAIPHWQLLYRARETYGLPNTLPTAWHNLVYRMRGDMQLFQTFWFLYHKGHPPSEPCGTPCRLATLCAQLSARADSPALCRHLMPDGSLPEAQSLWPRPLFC

This is a selection; strong and weak results do not stand in their true shares. Active and inactive are the calls of the source. The call rests on the fitted dose curve; in most records, active means well fitted inhibition curve with a large enough effect; inconclusive means small, poorly fitted or top-dose-only effect; inactive means no such curve, though single readings can be large or run the other way.

In the test the target is Sphingomyelin phosphodiesterase (Homo sapiens) (UniProt P17405). In words: Inhibitors of Secretory Acid Sphingomyelinase (S-ASM): qHTS. Particulars: placental ASM, HMU-PC fluorogenic substrate (series up to 57.5 µM), 60 min; at 57.5 µM (top of the series). For orientation: Quantitative high-throughput screening tests each substance at several concentrations.
As for `CCC(=O)N(c1ccccc1)C1(COC)CCN(CCc2cccs2)CC1`, the activity change, negative = inhibition was inactive: -1.24%. Next, `CCC(=O)N(c1ccccc1)C1(COC)CCN(CCn2nnn(CC)c2=O)CC1`: inactive: 4.11%.
